In US11590126B2, “Benzamide compounds” (Recurium IP Holdings, LLC, priority 2018, dated 2023):

Tested on: HIV-1 (IIIB strain) infected CD4 cells
Experiment: Measurement of caspase release in mock and HIV-1 (IIIB strain) infected CD4 cells
Assay type: cell-based, human
Details: primary CD4 T cells, HIV-1IIIb vs mock infected, FIG. 5

SMILES	selectivity in killing HIV vs. mock infected cells (Caspase 3/7 cell death)
CC1(C)CCC(CN2CCN(c3ccc(C(=O)NS(=O)(=O)c4ccc(NC[C@H]5CC[C@](C)(O)CC5)c([N+](=O)[O-])c4)c(Oc4cnc5[nH]ccc5c4)c3)CC2)=C(C23CC(C(F)F)(C2)C3)C1 [Example 34, 2-((1H-pyrrolo[2,3-b]pyridin-5-yl)oxy)-4-(4-((2-(3-(difluoromethyl)bicyclo[1.1.1]pentan-1-yl)-4,4-dimethylcyclohex-1-en-1-yl)methyl)piperazin-1-yl)-N-((4-((((1r,4r)-4-hydroxy-4-methylcyclohexyl)methyl)amino)-3-nitrophenyl)sulfonyl)benzamide]	selectivity in killing HIV vs. mock infected cells
CC1(C)CCC(CN2CCN(c3ccc(C(=O)NS(=O)(=O)c4ccc(OCC5(F)CCOCC5)c([N+](=O)[O-])c4)c(Oc4cnc5[nH]ccc5c4)c3)CC2)=C(C23CC(C(F)F)(C2)C3)C1 [Example 36, 2-((1H-pyrrolo[2,3-b]pyridin-5-yl)oxy)-4-(4-((2-(3-(difluoromethyl)bicyclo[1.1.1]pentan-1-yl)-4,4-dimethylcyclohex-1-en-1-yl)methyl)piperazin-1-yl)-N-((4-((4-fluorotetrahydro-2H-pyran-4-yl)methoxy)-3-nitrophenyl)sulfonyl)benzamide]	selectivity in killing HIV vs. mock infected cells
